Target: T1, human SIRT3 (Homo sapiens, UniProt Q9NTG7)
T1 construct: Truncated hSIRT3 (NAD^+ dependent deacetylase domain, 118–399 aa) was cloned into a pET-28b-SUMO vector; 6xHis-SUMO (N, cleaved yes); made in house; host or cells: E. coli BL21 (DE3)
T1 sequence (Q9NTG7 118-399): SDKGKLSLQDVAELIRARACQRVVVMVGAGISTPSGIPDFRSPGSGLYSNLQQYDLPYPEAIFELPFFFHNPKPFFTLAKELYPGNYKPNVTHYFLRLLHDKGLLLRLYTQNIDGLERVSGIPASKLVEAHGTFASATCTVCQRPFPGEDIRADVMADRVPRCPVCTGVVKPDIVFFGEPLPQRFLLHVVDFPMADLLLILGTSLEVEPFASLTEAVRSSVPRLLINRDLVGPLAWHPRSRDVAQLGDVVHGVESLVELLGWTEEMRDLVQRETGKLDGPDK
Test: Isothermal titration calorimetry, wild-type SIRT3
Format: binding
Conditions: ITC, 25 °C, absence of NAD^+

binding to SIRT3 (in words): not to the H3K9un peptide
Substance: H3K9un: first 17 amino acids from H3 without lactylation and acetylation on lysine 9 followed by two glycines and a biotinylated lysine

Source: article PMC12144510, “SIRT3 Functions as an Eraser of Histone H3K9 Lactylation to Modulate Transcription for Inhibiting the Progression of Esophageal Cancer” (Molecular & Cellular Proteomics : MCP, 2025)
